Data: patent publication US20070282007A1, “TREATMENT OF PAIN DISORDERS WITH trans 4-(3,4-DICHLOROPHENYL)-1,2,3,4-TETRAHYDRO-1-NAPHTHALENAMINE AND ITS FORMAMIDE” (SEPRACOR INC., priority 2006, published 2007)

By UniProt entry, the sequences of proteins in these tests, tags left out. Where a name states a change or a piece, a line headed by the entry shows the natural chain unless it says otherwise. Residues count along the entry.
UniProt P31645, whole entry: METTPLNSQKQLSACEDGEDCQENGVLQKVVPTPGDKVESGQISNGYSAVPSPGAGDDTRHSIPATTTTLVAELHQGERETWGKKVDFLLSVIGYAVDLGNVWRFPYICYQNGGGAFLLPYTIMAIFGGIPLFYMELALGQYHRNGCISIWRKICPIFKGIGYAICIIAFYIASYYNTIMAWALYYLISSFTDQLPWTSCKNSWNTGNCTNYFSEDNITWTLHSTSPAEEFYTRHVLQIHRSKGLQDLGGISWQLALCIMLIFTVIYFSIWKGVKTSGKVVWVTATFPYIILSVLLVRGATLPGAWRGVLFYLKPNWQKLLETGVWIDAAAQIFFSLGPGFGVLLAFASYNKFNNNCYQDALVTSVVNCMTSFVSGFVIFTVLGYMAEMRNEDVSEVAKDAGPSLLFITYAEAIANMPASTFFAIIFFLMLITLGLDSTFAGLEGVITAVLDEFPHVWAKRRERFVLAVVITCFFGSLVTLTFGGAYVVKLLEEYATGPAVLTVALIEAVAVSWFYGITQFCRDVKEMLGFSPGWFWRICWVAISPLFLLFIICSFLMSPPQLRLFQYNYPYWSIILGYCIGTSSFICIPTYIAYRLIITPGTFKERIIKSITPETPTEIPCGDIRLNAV
UniProt P20309, whole entry: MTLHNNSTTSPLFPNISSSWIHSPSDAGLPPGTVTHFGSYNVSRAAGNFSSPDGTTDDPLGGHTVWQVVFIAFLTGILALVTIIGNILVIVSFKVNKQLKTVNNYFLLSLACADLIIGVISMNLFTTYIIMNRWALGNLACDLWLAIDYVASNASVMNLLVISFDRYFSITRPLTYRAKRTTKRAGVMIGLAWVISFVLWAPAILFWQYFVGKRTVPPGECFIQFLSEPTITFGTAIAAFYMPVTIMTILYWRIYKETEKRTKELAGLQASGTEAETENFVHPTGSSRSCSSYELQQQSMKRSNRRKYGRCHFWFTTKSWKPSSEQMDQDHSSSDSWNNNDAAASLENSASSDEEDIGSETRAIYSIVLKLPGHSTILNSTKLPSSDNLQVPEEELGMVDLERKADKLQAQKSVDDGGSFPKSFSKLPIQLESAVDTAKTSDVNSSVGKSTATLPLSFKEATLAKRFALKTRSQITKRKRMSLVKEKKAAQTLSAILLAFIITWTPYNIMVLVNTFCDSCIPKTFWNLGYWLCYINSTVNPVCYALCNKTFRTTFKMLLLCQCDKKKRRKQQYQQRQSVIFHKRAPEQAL
UniProt P31652, whole entry: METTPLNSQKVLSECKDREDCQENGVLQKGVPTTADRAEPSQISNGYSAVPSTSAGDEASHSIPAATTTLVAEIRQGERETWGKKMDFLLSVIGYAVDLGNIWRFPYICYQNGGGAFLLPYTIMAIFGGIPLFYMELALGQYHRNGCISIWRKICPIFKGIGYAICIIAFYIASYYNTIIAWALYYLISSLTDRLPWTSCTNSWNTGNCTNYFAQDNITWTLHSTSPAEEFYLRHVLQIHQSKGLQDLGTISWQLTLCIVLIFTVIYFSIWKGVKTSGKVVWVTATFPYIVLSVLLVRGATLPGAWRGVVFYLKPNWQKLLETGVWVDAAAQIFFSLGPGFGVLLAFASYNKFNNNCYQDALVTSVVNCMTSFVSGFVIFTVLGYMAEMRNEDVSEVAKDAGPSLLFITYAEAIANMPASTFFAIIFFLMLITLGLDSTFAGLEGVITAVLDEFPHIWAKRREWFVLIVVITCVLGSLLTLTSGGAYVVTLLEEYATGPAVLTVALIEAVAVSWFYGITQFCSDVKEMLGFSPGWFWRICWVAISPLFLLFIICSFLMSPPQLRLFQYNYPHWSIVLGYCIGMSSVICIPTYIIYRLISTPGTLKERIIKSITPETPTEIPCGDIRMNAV
UniProt P11229: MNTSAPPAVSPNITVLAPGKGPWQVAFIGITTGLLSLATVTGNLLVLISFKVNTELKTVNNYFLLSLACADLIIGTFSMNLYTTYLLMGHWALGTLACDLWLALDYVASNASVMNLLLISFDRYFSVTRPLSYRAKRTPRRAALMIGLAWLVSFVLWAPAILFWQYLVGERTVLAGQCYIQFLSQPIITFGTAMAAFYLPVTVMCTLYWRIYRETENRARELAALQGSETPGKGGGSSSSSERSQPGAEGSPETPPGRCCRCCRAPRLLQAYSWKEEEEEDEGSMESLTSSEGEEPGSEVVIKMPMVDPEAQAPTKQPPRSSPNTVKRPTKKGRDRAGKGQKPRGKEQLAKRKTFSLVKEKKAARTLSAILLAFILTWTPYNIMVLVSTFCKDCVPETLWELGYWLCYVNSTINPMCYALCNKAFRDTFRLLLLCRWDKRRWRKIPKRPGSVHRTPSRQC
UniProt P23977, whole entry: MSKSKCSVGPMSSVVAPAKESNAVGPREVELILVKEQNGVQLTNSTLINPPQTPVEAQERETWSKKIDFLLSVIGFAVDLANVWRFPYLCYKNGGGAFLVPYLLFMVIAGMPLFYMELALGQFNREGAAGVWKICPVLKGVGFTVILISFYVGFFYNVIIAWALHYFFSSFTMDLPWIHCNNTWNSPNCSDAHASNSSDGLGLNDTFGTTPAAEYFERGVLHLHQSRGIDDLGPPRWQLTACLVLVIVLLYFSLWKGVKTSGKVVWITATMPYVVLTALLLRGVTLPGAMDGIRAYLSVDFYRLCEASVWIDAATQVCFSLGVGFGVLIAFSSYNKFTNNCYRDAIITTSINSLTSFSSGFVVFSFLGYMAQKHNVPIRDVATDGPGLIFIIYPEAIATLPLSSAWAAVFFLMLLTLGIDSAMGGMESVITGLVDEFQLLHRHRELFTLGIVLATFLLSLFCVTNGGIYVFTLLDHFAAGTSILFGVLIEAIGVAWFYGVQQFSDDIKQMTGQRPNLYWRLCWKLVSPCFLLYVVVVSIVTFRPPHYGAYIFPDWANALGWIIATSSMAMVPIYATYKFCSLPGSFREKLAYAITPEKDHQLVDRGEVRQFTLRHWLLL
UniProt Q63380, 1-617: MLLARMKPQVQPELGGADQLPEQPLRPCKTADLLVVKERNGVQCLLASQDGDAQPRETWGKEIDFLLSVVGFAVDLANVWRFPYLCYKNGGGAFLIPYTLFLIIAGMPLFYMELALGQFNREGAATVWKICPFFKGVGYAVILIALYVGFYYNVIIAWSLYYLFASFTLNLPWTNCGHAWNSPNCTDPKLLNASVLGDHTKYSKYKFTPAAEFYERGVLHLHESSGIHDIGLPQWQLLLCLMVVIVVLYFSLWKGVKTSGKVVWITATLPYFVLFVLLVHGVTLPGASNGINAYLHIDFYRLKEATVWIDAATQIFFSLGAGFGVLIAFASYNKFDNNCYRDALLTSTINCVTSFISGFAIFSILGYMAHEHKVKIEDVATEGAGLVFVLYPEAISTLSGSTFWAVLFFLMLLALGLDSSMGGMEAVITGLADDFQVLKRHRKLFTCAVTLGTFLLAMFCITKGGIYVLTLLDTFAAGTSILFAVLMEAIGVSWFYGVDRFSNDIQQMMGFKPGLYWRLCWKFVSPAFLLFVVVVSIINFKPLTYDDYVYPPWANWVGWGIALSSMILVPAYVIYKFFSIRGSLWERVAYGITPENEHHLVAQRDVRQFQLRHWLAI

Key:
[1] = target: recombinant human Serotonin (5-HT) transporter (Homo sapiens, UniProt P31645); assay: cell-based
[2] = target: muscarinic (M3) receptor (Homo sapiens, UniProt P20309); assay: biochemical
[3] = target: Serotonin (5-HT) uptake (Rattus norvegicus, UniProt P31652); assay: biochemical
[4] = target: T1, 5-HT transporter (Homo sapiens, UniProt P31645); assay: Radioligand binding assay, 5-HT transporter ([3H]paroxetine displacement); conditions: human recombinant; [3H]paroxetine 0.1 nM; read-out: Ki, Serotonin (5-HT) transporter
T1 construct: expressed in transfected cells

[5] = target: M1 (Homo sapiens, UniProt P11229); assay: In vitro radioligand binding assay, M1
[6] = target: Dopamine (DA) uptake (Rattus norvegicus, UniProt P23977); assay: biochemical
[7] = target: T2, Norepinephrine (NE) uptake (Rattus norvegicus, UniProt Q63380); assay: Functional uptake of radiolabeled NE into synaptosomes from rat hypothalamus; type: biochemical
T2 construct: from tissue; host or cells: synaptosomes from rat hypothalamus

Row | SMILES | IC50 [1] | Ki [2] | IC50 [3] | Ki [4] | Ki [5] | IC50 [6] | IC50 [7]
1 | N[C@@H]1CC[C@@H](c2ccc(Cl)c(Cl)c2)c2ccccc21 [Compound P, (1R,4S)-trans 4-(3,4-dichlorophenyl)-1,2,3,4-tetrahydro-1-napthalenamine] | 18.4 nM | 170 nM | 7.7 nM | 23 nM | 1000 nM |  | 
2 | COc1ccc(C(CN(C)C)C2(O)CCCCC2)cc1 (stereo not shown) [Venlafaxine] |  |  |  |  |  | 5 µM | 360 nM
3 | N[C@@H]1CC[C@@H](c2ccc(Cl)c(Cl)c2)c2ccccc21 (racemic) [1:1 mixture of Compounds P & Q, trans-4-(3,4-dichlorophenyl)-1,2,3,4-tetrahydro-1-napthalenamine] |  |  | 4.1 nM |  |  |  | 
4 | N[C@H]1CC[C@H](c2ccc(Cl)c(Cl)c2)c2ccccc21 [Compound Q, (1S,4R)-trans 4-(3,4-dichlorophenyl)-1,2,3,4-tetrahydro-1-napthalenamine] | 47.8 nM |  | 88 nM |  |  |  | 
